## Measured affinities in a library of Ab-14 heavy chain variants

Reference: Li et al. 2023, doi:10.1038/s41467-023-39022-2. File: FLAb, binding data.

Binding partner: SARS-CoV-2 spike HR2 peptide, sequence PDVDLGDISGINAS.

Parent scFv Ab-14: VH joined to VL by a 15-residue (Gly4Ser)3 linker. Changes lie in the heavy chain CDRs alone.
VH: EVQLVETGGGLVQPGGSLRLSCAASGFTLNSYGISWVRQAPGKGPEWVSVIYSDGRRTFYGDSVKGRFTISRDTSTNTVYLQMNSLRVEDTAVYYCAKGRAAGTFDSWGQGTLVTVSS
VL: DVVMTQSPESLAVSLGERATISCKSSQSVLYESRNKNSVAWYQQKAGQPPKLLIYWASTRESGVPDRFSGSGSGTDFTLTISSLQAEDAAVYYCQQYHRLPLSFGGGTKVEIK

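The parent was found by panning a naive human phage display library on the peptide. This is the validation round: designs drawn from the data on random variants, tested in the same kind of assay. Group labels follow the data file (Ctrl: baseline library sampled from a position-specific scoring matrix, with some repeated check sequences; En: ensemble of fine-tuned language models; GP: Gaussian process model; GPLM: also part of the Gaussian process libraries; HC: hill climbing; Gen: genetic algorithm; Gibbs: Gibbs sampling; a sequence that several methods proposed may carry one label only). AlphaSeq pools MATa yeast showing the antibodies with MATalpha yeast showing the peptide. Binding brings cells together so that they mate, and sequencing counts the barcode pairs among the diploids. The ratio of observed to expected reads was calibrated, replicate by replicate, on BCL2-family standards whose Kd was known from biolayer interferometry. The assay was run in six technical replicates.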

The parent's heavy chain CDRs are GFTLNSYGIS, VIYSDGRRTFYGDSVK, GRAAGTFDS; each variant's own CDRs replace them letter for letter. Kd is apparent (estimated from mating counts) and averaged on the log scale over replicates with a signal. Smaller is tighter. An entry "nd" has no value in the source: the pair was not observed among the diploids in any replicate. This suggests poor binding but is not conclusive.

For GFDLDEYGIS, VIYADGKRTAYTDSVK, GETAGTFDV [En_Gen], the assay gave 130 pM (6 of 6 replicates).
For GFDLDEYGIS, VIYADGMRTAYADSVK, GTVAGTFDL [En_Gen], the assay gave 390 pM (6 of 6 replicates).
For GFELNDYGIS, VIYSDGRRTFYGDSVK, GQAAGTFDL [GP_Gibbs], the assay gave 3.8 nM (6 of 6 replicates).
For GFDLNEYGIS, VIYADGLRTSYSDSVK, GQLAGTFDQ [En_HC], the assay gave 260 pM (6 of 6 replicates).
For GFDLDEYGIS, VIYADGRRTFYQDSVK, GNVAGTFDA [En_HC], the assay gave 90 pM (6 of 6 replicates).
For GFELNSYGIS, VIYSDGRRTFYTDSVK, GSEAGTFDS [GP_Gibbs], the assay gave 1.2 nM (6 of 6 replicates).
For GFTLNEYGIS, VIYSDGRRTFYTDSVK, GRTAGTFTS [GP_HC], the assay gave 10 nM (6 of 6 replicates).
For GFELNSYGIS, VIYSDGRRTFYGDSVK, GSAAGTFDD [GPLM_Gibbs], the assay gave 94 nM (3 of 6 replicates).
For GFDLDEYGIS, VIYADGMRKAYADSVK, GNNAGTFDI [En_Gen], the assay gave 360 pM (4 of 6 replicates).
For GFTLNSYGIS, VIYSDGRRTAYGDSVK, GHAAGTFDS [Ctrl], the assay gave 3.2 nM (6 of 6 replicates).
For GQTLESYGIS, VIYSDGRRTFYGDKVK, GRVAGTFDG [Ctrl], the assay gave nd (0 of 6 replicates).
For GFSLNEYGIS, VIYSDGRRTFYWDSVK, GRAAVTFDQ [GP_HC], the assay gave nd (0 of 6 replicates).
For GDSLAEYGIS, VIYADGERSAYKDSFK, GWVAGYFDV [En_Gibbs], the assay gave nd (0 of 6 replicates).
For GFDLNEYGIS, VIYADGRRTAYTDSVK, GQNAGTFDV [En_Gen], the assay gave 770 pM (6 of 6 replicates).
For GFDLDEYGIS, VIYADGKRTAYANSVK, GEVAGTFDV [En_Gen], the assay gave 720 pM (5 of 6 replicates).
For GFQIDEYGIS, VIYADGERASYAADVK, GSVDGVGLT [En_Gibbs], the assay gave nd (0 of 6 replicates).
For GFSLNSYGIS, VIYSDGRRTFYADSVK, GQTAGTFDT [GPLM_Gen], the assay gave 1.5 nM (6 of 6 replicates).
For GFWLNSYGIS, VIYSDGRRTFYGDSVK, GEVEGTFDS [Ctrl], the assay gave nd (0 of 6 replicates).
For GFTLNSYGIS, VIYADGRRTFYGDSVK, GRSAGTFKI [GP_HC], the assay gave 640 pM (6 of 6 replicates).
For GFDLNEYGIS, VIYADGVRTFYADSVK, GETAGTFDS [En_HC], the assay gave 1.1 nM (6 of 6 replicates).
For GFDLNEYGIS, VIYADGRRTAYSDSVK, GEIAGTFDI [En_HC], the assay gave 600 pM (6 of 6 replicates).
For GFSLKSYGIS, VIYADGRRTFYGDNVK, GRTAGTFDS [GP_Gibbs], the assay gave 1.8 nM (6 of 6 replicates).
For GFDINEYGIS, VVYADGMRQAYIEQVK, GTLSGTFDA [En_Gibbs], the assay gave nd (0 of 6 replicates).
For GFDLNSYGIS, VIYSDGRRTFYGDSVK, GRAAGHFRS [GPLM_HC], the assay gave nd (0 of 6 replicates).
For GFTLNSYGIS, VIYSDGRRTAYGDNVK, GPAAGTFDS [Ctrl], the assay gave 3.8 µM (1 of 6 replicates).
For GFDLNEYGIS, VIYADGRRTFYADSVK, GQNAGTFDI [En_HC], the assay gave 1.6 nM (6 of 6 replicates).
For GFTLNSYGIS, VIHSDGRRTFYQDSVK, GRAGGTFDS [Ctrl], the assay gave nd (0 of 6 replicates).
For GFDLNEYGIS, VIYADGSRTFYSDSVK, GNTAGTFDV [En_HC], the assay gave 600 pM (6 of 6 replicates).
For GFDLNEYGIS, VIYADGMRTYYADSVK, GNTAGTFDV [En_Gen], the assay gave 610 pM (6 of 6 replicates).
For GFTLNEYGIS, VIYSDGRRTFYQDQVK, GRATGTFDS [Ctrl], the assay gave nd (0 of 6 replicates).
For GFSLNSYGIS, VIYSDGRRTFYADSVK, GVTAGTFDS [GPLM_Gen], the assay gave 1.4 nM (6 of 6 replicates).
For GFDLNEYGIS, VIYSDGRRTFYGDSVK, GEAAGTFDK [GP_Gen], the assay gave 870 nM (1 of 6 replicates).
For GFDLNEYGIS, VIYADGRRYHYQDSVK, GNVVGSVMY [En_Gibbs], the assay gave nd (0 of 6 replicates).
For GFDLNEYGIS, VIYADGMRTAYSDSVK, GSNAGTFDM [En_Gen], the assay gave 1.7 nM (6 of 6 replicates).
For GFDLDEYGIS, VIYADGRRTFYTDSVK, GTNAGTFDV [En_HC], the assay gave 2.1 nM (6 of 6 replicates).
For GFDLDEYGIS, VIYADGRRTFYADSVK, GTTAGTFDA [En_HC], the assay gave 500 pM (6 of 6 replicates).

The 3 strongest on average among those seen in every replicate, once more:

{"CDR-H1": "GFDLDEYGIS", "CDR-H2": "VIYADGRRTFYQDSVK", "CDR-H3": "GNVAGTFDA", "group": "En_HC", "Kd": "90 pM", "seen in": "6/6"}
{"CDR-H1": "GFDLDEYGIS", "CDR-H2": "VIYADGKRTAYTDSVK", "CDR-H3": "GETAGTFDV", "group": "En_Gen", "Kd": "130 pM", "seen in": "6/6"}
{"CDR-H1": "GFDLNEYGIS", "CDR-H2": "VIYADGLRTSYSDSVK", "CDR-H3": "GQLAGTFDQ", "group": "En_HC", "Kd": "260 pM", "seen in": "6/6"}

A sequence measured in both rounds can read differently, since the two assays cover different ranges. Empty control strains, which show no peptide, gave a signal in 1% of pairings with all heavy chain designs; the median was 120 nM and 95% of these signals were weaker than 7.0 nM. No background was subtracted. The parent sequence was in this pool as ten entries: three were never detected, three once, and four in most replicates, with averages from 2.2 nM to 240 nM. In the paper, a design with two or fewer of six values counts as a poor binder.